Tested on: human colon crypts
Assay: Screening of reagents for optimization of human intestinal organoids culture (plating efficiency)
Type: cell-based

CC1=C2C[C@H]3[C@@H](CC=C4C[C@@H](O)CC[C@@]43C)[C@@H]2CC[C@]12O[C@@H]1C[C@H](C)CN[C@H]1[C@H]2C [Cyclopamine]
Activity (plating efficiency compared with control after 4 days culture): 1− (key: 0 = no change; 1+ = <50% increase; 2+ = 50-100% increase; 3+ = >100% increase; 1− = 0-50%; 2− = 50-100% decrease; 3− = >100% decrease)

From patent publication US20140243227A1, “CULTURE MEDIA FOR STEM CELLS” (Koninklijke Nederlandse Akademie van Wetenschappen, priority 2011, published 2014)
